Values quoted from earlier work as cited in patent US20220001039A1, “COMPOSITIONS AND METHODS FOR DETECTING ACE2 EXPRESSION PROFILES” (Washington University, priority 2020, published 2022).

Conditions: in vivo; cited from earlier work

**Q.** Which whole-body effective dose does the source give for 18F-Fluorodeoxyglucose [18F-FDG] here?
**A.** Its whole-body effective dose is 0.019 mSv/MBq.
